Rows were chosen to be rich in hits. Some 1.2% of all compounds tested hit in one or more screens of this group.
Yeast UUG start – yeast start codon fidelity modulation | S. cerevisiae UUG-firefly luciferase reporter, luminescence/redox ratio | activity score, % at 18.7 µM | hit rate 0.13% among 350,000 | AID 602363;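 active means replicate mean at a twofold rise or more, about +100% in these data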;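 further: firefly luciferase made from a UUG start codon reports start codon fidelity; reporter light over untreated wells divided by growth signal over untreated wells; some hits fall short of that in this replicate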
Cneo AK release – causes C. neoformans cell lysis; adenylate kinase release luminescence, 4 h; normalised: neutral wells 0, clomiphene wells 100; lysis activity, % at 15 µM; 0.2% of 360,000 active;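 active means mean lysis activity across replicates of at least 80%, whatever share of replicates individually reach that level; inactive means mean lysis activity below 80%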
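Test system: log-phase Cryptococcus neoformans yeast cells. Input: 5 × 10^6 yeast cells/mL. Medium: fresh YPD growth medium. Doses: single dose. Incubation: static 4 h at 37 °C with compound, 1 h detection. Measured by: luminescent adenylate kinase detection reagent. Read-out: signal increase indicating cell lysis. Benchmarks: Clomiphene.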
miR-122 sensor – inhibitors of miR-122 in Huh7 cells; Huh7 miR-122 Renilla luciferase sensor, 48 h; neutral wells = 0, positive control = 100; 0.3% of 340,000 active; activation (reporter increase), % at 12.5 µM;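 active means mean replicate activation score at least 90 and every replicate individually at or above 90; inconclusive means only one of the two criteria met; inactive means neither criterion met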;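 further: higher luciferase means less miR-122 activity so hits act as miR-122 inhibitors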
C2C12 statin – suppressors of simvastatin-induced myotoxicity in C2C12 myotubes | 0.78% of 330,000 active | AID 602340 | ATP luminescence, 48 h; scaled: DMSO 0, geranylgeraniol control 100 | rescue of ATP level, % at 7.49 µM;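 active means mean ATP rescue above about 67%, or every replicate alone reaching that limit, limit read from the data, passing the limit was not always enough; inconclusive means no clear call, values can overlap the other calls; inactive means mean under the limit and some replicate under it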;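 further: myotubes were challenged with 10 µM simvastatin during compound exposure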
The depositor's hits bear a star; u = inconclusive; x = no result; [ ] = remark or other dose.

Order of values: Yeast UUG start, Cneo AK release, miR-122 sensor, C2C12 statin
- CCCCn1c(SCc2cccnc2)nc2c1c(=O)n(C)c(=O)n2C
 : -14, 0, 2, 2
- CCCCn1c(SCc2ccccn2)nc2c1c(=O)n(C)c(=O)n2C
 : 2, -2, 27, 117*
- O=[N+]([O-])c1cccc(-c2c(-c3ccccc3)ncc3ccc(F)cc23)c1
 : -7, 1, -1, 121*
- CO[C@H](CN(C)Cc1nccs1)[C@@H](C)CN([C@@H](C)CO)S(=O)(=O)c1ccc(C)cc1
 : x, 14, x, 3
- COc1ccc(NC(=O)c2cccc(S(=O)(=O)Nc3ccc(Br)cc3)c2)cn1
 : x, x, 103*, -8
- COc1ccc(C(N)=O)cc1N
 : -11, 0, 0, 130*
- C[C@@H]1CCCCO[C@@H](CN(C)CC2CC2)[C@H](C)CN([C@@H](C)CO)C(=O)c2cc(NS(C)(=O)=O)ccc2O1
 : x, 15, -6[16.7 µM], x
- C[C@@H]1CCCCO[C@H](CN(C)C(=O)c2ccncc2)[C@H](C)CN([C@@H](C)CO)C(=O)c2cc(NS(=O)(=O)c3ccc(Cl)cc3)ccc2O1
 : 11, -2, -2[16.7 µM], x
- CC1CN/C(=C\C(=O)c2ccc(Cl)cc2)C(=O)N1 (centres undefined)
 : -46, -4, -3, 88*
- CC1CN/C(=C\C(=O)c2ccccc2)C(=O)N1 (centres undefined)
 : -30, 2, -3, 117*
- O=C1NCCN/C1=C\C(=O)c1ccc(Cl)cc1
 : -11, -3, -6, x
- Cc1noc(C)c1NC(=O)N(C)C[C@@H]1OCCCC[C@H](C)Oc2ccc(NC(=O)Cc3ccccc3)cc2C(=O)N([C@@H](C)CO)C[C@@H]1C
 : 1, 4, -6[16.7 µM], x
- C[C@H]1CN([C@@H](C)CO)C(=O)c2cc(NS(C)(=O)=O)ccc2O[C@@H]1CN(C)S(=O)(=O)c1ccccc1
 : 14, x, -3[16.7 µM], x
- C[C@@H]1CN([C@@H](C)CO)C(=O)c2cc(NC(=O)Nc3ccc(C(F)(F)F)cc3)ccc2O[C@@H]1CN(C)C
 : 12, 2, 6[16.7 µM], -19
- CCOC(=O)c1ccc(NC(=O)N2CCc3ccccc32)cc1
 : 4, -8, 2, 72*

Given with each value named: entries from further up.
> CO[C@H](CN(C)Cc1nccs1)[C@@H](C)CN([C@@H](C)CO)S(=O)(=O)c1ccc(C)cc1
  Yeast UUG start = x
  Cneo AK release = 14
  miR-122 sensor = x
  C2C12 statin = 3

> COc1ccc(NC(=O)c2cccc(S(=O)(=O)Nc3ccc(Br)cc3)c2)cn1
  Yeast UUG start = x
  Cneo AK release = x
  miR-122 sensor = 103*
  C2C12 statin = -8

> COc1ccc(C(N)=O)cc1N
  Yeast UUG start = -11
  Cneo AK release = 0
  miR-122 sensor = 0
  C2C12 statin = 130*

The list continues:
Order of values: Yeast UUG start, Cneo AK release, miR-122 sensor, C2C12 statin
- CCOC(=O)c1ccc(NC(=O)N2CCCCC2)cc1
 : -25, -4, 3, 137*
- O=c1[nH]c(=O)c2[nH]c(=O)n(-c3ccccc3)c2[nH]1
 : x, x, u, 2
- O=c1[nH]c(=S)c2[nH]c(=S)n(-c3ccccc3)c2[nH]1
 : -14, 2, -6, 99*
- C=CCc1cccc(OC)c1OCCOCCNCCO
 : -15, 1, 1, 83*
- COc1ccc(S(=O)(=O)N2CCN(C)CC2)cc1NC(=O)c1ccccc1F
 : -16, 6, 12, -14
- COc1cc(S(=O)(=O)N2CCN(C(=O)c3ccccc3F)CC2)c(OC)cc1NC(C)=O
 : -12, 2, -1, 102*
- O=C(NCc1ccco1)C1Cc2ccccc2CN1S(=O)(=O)c1ccccc1F (centres undefined)
 : -15, 2, 10, 67*
- O=C(NCC1CC1)[C@H]1[C@H](CO)[C@H]2Cn3c(ccc(-c4cccnc4)c3=O)[C@@H]1N2Cc1nccs1
 : x, 1, 1[16.7 µM], 13
- O=C(C[C@@H]1C[C@@H]2c3cc(NC(=O)Nc4ccccc4)ccc3O[C@@H]2[C@H](CO)O1)NCc1cccnc1
 : -22, 1, 5[16.7 µM], 2
- Cc1nn(-c2ccccc2)c(Cl)c1C(=O)Nc1nnc(C2CCCCC2)s1
 : -17, 3, 4, x
- O=C(Nc1nnc(C2CC2)s1)c1cc(-c2ccccc2)nn1-c1ccccc1
 : -14, 2, -2, 78*
- COc1ccc(NC(=O)N(C)C[C@@H]2Oc3ncc(C#C[C@@H](C)O)cc3C(=O)N([C@@H](C)CO)C[C@H]2C)cc1
 : 17, 51, 9[16.7 µM], 7
- CCOC(=O)C1=C(CC)Nc2ccccc2N=C1NC(=O)c1ccc(S(=O)(=O)N(C)C)cc1
 : -30, 2, -2, 7
- CCOC(=O)C1=C(C)Nc2ccccc2N=C1NC(=O)c1cccc(S(=O)(=O)N(C)C)c1
 : -12, -1, -2, 111*
- COc1ccc(NC(=O)N[C@H]2CC[C@@H](CCn3cc(-c4ccccc4)nn3)O[C@H]2CO)cc1
 : -18, 1, x, 7
- C=CCn1c(N)c(C(=O)N2CCOCC2)sc1=S
 : x, x, -1, -4
- CCn1c(N)c(C(=O)N2CCOCC2)sc1=S
 : -18, -1, 3, 129*
- C[C@H](CO)N1C[C@H](C)[C@H](CN(C)CC2CC2)Oc2ccc(NC(=O)Cn3cnnn3)cc2CC1=O
 : -7, -2, 2[16.7 µM], 17
- CN1CC[C@]23c4ccccc4N[C@H]1[C@]21CCN(C)[C@H]3Nc2ccccc21
 : 1, 1, -2, 9
- COC(=O)C1CC23C=CCN4CCC5(c6ccccc6NC15C2C)C43 (centres undefined)
 : 4, -1, 148*, -140
- C[C@@H]1CN([C@@H](C)CO)C(=O)Cc2cc(NC(=O)Nc3ccc(F)cc3)ccc2O[C@H]1CN(C)Cc1ccccc1
 : 6, -2, -12[16.7 µM], -27
- CCc1c(C(=O)NCc2ccccc2Cl)[nH]c(C)c1C(C)=O
 : -10, 0, 118*, 28
- CCc1c(C(=O)NC2CCCCC2)[nH]c(C)c1C(C)=O
 : -3, 2, 212*, 0
- CC(=O)c1c(C)[nH]c(C(=O)NCc2ccccc2Cl)c1C
 : -21, -1, 89, -2
- O=C(NCC[C@@H]1CC[C@@H](NC(=O)C2CCC2)[C@H](CO)O1)Nc1ccc(Cl)cc1
 : 28, -1, x, -10
- C[C@@H]1CN([C@@H](C)CO)C(=O)c2cccc(NC(=O)Nc3ccc(F)cc3)c2O[C@@H]1CN(C)CC1CC1
 : 3, -10, 3[16.7 µM], 9
- CO[C@@H]1CN(C)C(=O)c2ccc(NC(=O)C3CCCC3)cc2OC[C@H](C)N(CCC(F)(F)F)C[C@H]1C
 : 15, -2, -8[16.7 µM], 7
- C[C@H](CO)N1C[C@H](C)[C@@H](CN(C)Cc2ccc(Oc3ccccc3)cc2)Oc2ccc(NC(=O)Nc3ccc4c(c3)OCO4)cc2C1=O
 : 45, 101*, -1[16.7 µM], x
- C[C@@H]1CN([C@@H](C)CO)C(=O)c2cc(NC(=O)Nc3ccc4c(c3)OCO4)ccc2O[C@H]1CN(C)Cc1ccc(Oc2ccccc2)cc1
 : 50, 89*, 7[16.7 µM], x
- C[C@@H]1CN([C@H](C)CO)C(=O)c2cc(/C=C/c3ccccc3)cnc2O[C@@H]1CN(C)C(=O)c1cnccn1
 : 4, -8, -4[16.7 µM], -7
- COc1ccc2[nH]c(C(=O)N(C)Cc3ccccc3)c(C)c2c1
 : -4, -1, 66, 0
- CCN(Cc1ccccc1)C(=O)c1[nH]c2ccc(OC)cc2c1C
 : 4, -3, 125*, 8
- C[C@H]1CN([C@@H](C)CO)C(=O)c2cc(NC(=O)CCN3CCOCC3)ccc2O[C@H]1CN(C)CC1CCCCC1
 : 6, 2, 5[16.7 µM], 0
- CC(C)(C)c1cc(C(=O)NNc2cccc(Cl)c2)n(Cc2ccccc2)n1
 : -10, -1, 126*, 61
- Cc1ccc(NNC(=O)c2cc(C(C)(C)C)nn2Cc2ccccc2)cc1
 : -6, 0, 0, 28
- C[C@@H]1CN([C@H](C)CO)C(=O)Cc2cc(NC(=O)Nc3ccccc3)ccc2O[C@@H]1CN(C)C
 : -8, -3, 9[16.7 µM], 6

Source: PubChem
